Values of other authors in patent publication US5843887A, “Compositions for delivery of polypeptides, and methods” (Allied Medical Research Associates, priority 1994, dated 1998).

Settings: nasal route, cited from earlier work

For insulin, the fraction of absorption (with surfactant materials) is listed as 10-20% and the onset of action is listed as ≤ 10 min.
